Source: patent US9868767B2, “Chemical synthesis and screening of bicyclic peptide libraries” (OHIO STATE INNOVATION FOUNDATION, priority 2013, dated 2018)
Entries after “also recorded” stand apart in the source; their conditions may differ. Where two headings read alike, the source gives them in different places.

Sequences of proteins named here, by UniProt entry; tags and fusion partners are left off. Residues count along the entry.
UniProt P01375, 77-233: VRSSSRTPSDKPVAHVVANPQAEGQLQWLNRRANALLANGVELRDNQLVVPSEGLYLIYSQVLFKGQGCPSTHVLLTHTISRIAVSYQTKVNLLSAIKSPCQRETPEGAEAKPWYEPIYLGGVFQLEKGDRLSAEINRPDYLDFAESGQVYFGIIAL
UniProt P02769, 25-607: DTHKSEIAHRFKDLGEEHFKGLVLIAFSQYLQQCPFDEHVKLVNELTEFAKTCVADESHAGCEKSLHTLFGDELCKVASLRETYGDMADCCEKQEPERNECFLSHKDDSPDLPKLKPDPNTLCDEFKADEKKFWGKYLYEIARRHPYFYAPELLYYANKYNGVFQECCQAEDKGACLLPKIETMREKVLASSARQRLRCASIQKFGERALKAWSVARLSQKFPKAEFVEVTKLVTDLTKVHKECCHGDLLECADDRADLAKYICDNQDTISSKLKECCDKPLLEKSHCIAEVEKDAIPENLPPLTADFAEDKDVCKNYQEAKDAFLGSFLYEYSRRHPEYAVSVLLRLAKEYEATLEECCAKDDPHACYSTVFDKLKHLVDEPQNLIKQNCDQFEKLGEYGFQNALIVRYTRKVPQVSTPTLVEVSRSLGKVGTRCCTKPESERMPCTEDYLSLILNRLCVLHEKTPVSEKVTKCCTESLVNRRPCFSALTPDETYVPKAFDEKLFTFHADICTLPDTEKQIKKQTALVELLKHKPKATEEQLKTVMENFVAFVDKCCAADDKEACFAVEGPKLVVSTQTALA
UniProt P98170, 241-356 limits assumed: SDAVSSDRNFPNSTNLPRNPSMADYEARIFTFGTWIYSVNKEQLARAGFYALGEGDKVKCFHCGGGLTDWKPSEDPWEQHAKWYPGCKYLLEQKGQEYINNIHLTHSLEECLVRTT

Columns and labels:
[1] = target: T1, TNFα (Homo sapiens, UniProt P01375); test: FA competition between Necrostatin C1 and C2 for binding to TNFα; conditions: TNFα 1600 nM, probe 100 nM, 1 h 37° C.
T1 construct: extracellular domain of human TNFα (aa 77-233); ybbR tag ([…]; made in house; host or cells: E. coli BL21(DE3)

[2] = target: T1, TNFα; test: Fluorescence anisotropy (FA) binding to TNFα; conditions: read-out: KD for TNFα; resynthesized, FITC-labeled, HPLC-purified peptide
[3] = target: T2, protein-tyrosine phosphatase 1B (PTP1B) (Homo sapiens, UniProt P18031); test: FA binding to control protein PTP1B; conditions: FITC-labeled peptide
T2 sequence (P18031 1-435): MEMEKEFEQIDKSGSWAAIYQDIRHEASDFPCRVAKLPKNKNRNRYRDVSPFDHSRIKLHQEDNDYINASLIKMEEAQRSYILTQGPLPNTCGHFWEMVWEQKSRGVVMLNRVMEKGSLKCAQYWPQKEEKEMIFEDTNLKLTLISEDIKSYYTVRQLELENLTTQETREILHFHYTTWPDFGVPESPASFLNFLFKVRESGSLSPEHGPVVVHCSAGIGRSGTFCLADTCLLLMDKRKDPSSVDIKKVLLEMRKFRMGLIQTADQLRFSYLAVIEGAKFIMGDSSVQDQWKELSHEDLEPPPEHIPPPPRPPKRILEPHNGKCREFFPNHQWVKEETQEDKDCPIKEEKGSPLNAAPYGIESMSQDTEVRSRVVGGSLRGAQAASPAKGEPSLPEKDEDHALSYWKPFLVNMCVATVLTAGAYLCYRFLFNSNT

[4] = target: bovine serum albumin (BSA) (Bos taurus, UniProt P02769); test: FA binding to control protein BSA; conditions: read-out: KD for BSA; FITC-labeled peptide
[5] = target: T3, glutathione-S-transferase-PLC7 SH2 domain fusion (GST-SH2) (Homo sapiens, UniProt P16885); test: FA binding to control protein GST-SH2; conditions: FITC-labeled peptide
T3 construct: GST fusion with the N—SH2 domain of SH2 of PLCγ
T3 sequence (P16885 532-635): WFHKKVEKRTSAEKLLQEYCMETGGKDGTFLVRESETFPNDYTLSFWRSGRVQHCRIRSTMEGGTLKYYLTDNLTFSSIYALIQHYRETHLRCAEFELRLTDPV

[6] = target: K-Ras (Homo sapiens, UniProt P01116); test: FA binding to K-Ras (Example 2 library hits); conditions: FITC-labeled, recombinant K-Ras; NA = no significant binding activity
[7] = target: T4, K-Ras (Homo sapiens, UniProt P01116, G12V); test: FA binding to K-Ras (Example 4 DCAI-bearing bicyclic peptides); conditions: read-out: KD for K-Ras; FAM- or FITC-labeled peptide; NB = no binding
T4 construct: GST; made in house

[8] = target: T5, GST-SHD SH2 domain fusion protein (Homo sapiens, UniProt Q96IW2); test: FA binding to GST-SHD SH2
T5 sequence (Q96IW2 240-335 limits assumed): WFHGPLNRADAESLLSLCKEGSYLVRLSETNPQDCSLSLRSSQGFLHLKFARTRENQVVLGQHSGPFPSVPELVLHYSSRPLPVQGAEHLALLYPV

[9] = target: Ras-GDP (Homo sapiens, UniProt P01116); test: FA binding to K-Ras loaded with GDP; conditions: read-out: KD for Ras-GDP; FITC-labeled peptide
[10] = target: maltose-binding protein-XIAP BIR3 domain fusion (MBP-BIR3) (Homo sapiens, UniProt P98170); test: FA binding to MBP-BIR3; conditions: read-out: KD for MBP-BIR3
[11] = target: Ras-GPPNP (Homo sapiens, UniProt P01116); test: FA binding to K-Ras loaded with GPPNP; conditions: read-out: KD for Ras-GPPNP; FITC-labeled peptide
[12] = target: Ras-Raf interaction (Homo sapiens, UniProt P01116); test: HTRF assay of Ras-Raf interaction; assay type: binding; conditions: read-out: IC50, inhibition of the Ras-Raf interaction
[13] = target: Ras-GTP (Homo sapiens, UniProt P01116); test: FA binding to K-Ras loaded with GTP; conditions: read-out: KD for Ras-GTP; FITC-labeled peptide

Substance “bicyclo(Ala-D-Phe-Trp-D-Thr-Gln-Lys-Nle-D-Leu-Ala-His-Dap) [Necrostatin C2]” has an IC50 ([1]; read-out: IC50, inhibition of binding of FITC-labeled Necrostatin C1 to TNFα) of about 4 µM, an IC50 ([1]; read-out: IC50, inhibition of binding of FITC-labeled Necrostatin C2 to TNFα) of about 2 µM and a Kd [2] of 1.9 µM. The Kd ([3]; read-out: KD / binding to PTP1B) was 3 to 37 µM, the Kd [4] was 3 to 37 µM and the Kd ([5]; read-out: KD for GST-SH2) was 3 to 37 µM.
For “bicyclo(Ala-Orn-Phg-Arg-d-Asn-Pra-Ile-d-Phe-K-FNalR4-Dap)-K [Peptide 13]”, the “KD of resynthesized peptide for K-Ras” value [6] was “no significant binding; also recorded: did not show significant binding”.
“bicyclo(Ala-d-Leu-Phe-Arg-d-Asn-Pra-Ile-Asp-K-FNalR4-Dap)-K [Peptide 41]” showed a Kd [7] of 0.3 µM.
For “bicyclo(Phg-Tyr-D-Ala-Lys-Tyr-D-Phe-Gly-D-Lys-His-Dap) [Necrostatin C1]”, the “KD / binding to PTP1B” value [3] was “not to any of the other proteins” and the “KD for GST-SH2” value [5] was “not to any of the other proteins”.
In the case of “nal-Ser-Gln-nal-Phg-Lys-phe-Arg-val-Arg-Dap [Hit 82]”, the “KD / binding to PTP1B” value [3] is reported as “very weakly”, the Kd [4] is reported as 17 µM and the “KD / binding to GST-SHD SH2” value [8] is reported as “very weakly”. It also gave a Kd [9] of 9.3 µM, a Kd [10] of 16 µM and a Kd [11] of 1.6 µM. The IC50 [12] was about 1.4 µM and the Kd [13] was 1.2 µM.
